Measured values reported in patent US20050090551A1, “Therapeutic use of methionine for the treatment or prevention of mucositis” (Board of Trustees of Southern Illinois University, priority 2003, published 2005).

Test system: human salivary gland cell line
Conditions: 1.0, 0.5, 0.2 and 0.1 mg/ml D-methionine six hours before 10 Gy

CSCC[C@@H](N)C(=O)O [D-methionine]
cell growth: underwent log phase growth | cell viability: 85-95%
